In the test the test system is MCF7. The test is described as follows: Antiproliferative activity against human MCF7 cells assessed as inhibition of cell growth after 72 hrs by MTT assay. Type of test: functional, cell-based. Particulars: MCF7, 72 h. A general note: Tetrazolium assays rely on reduction of a dye to a coloured formazan, in cell work by metabolically active cells.

As to `O=c1[nH]cc(F)c(=O)[nH]1` [FLUOROURACIL], the IC50 (usually the concentration at which inhibition is half-maximal) stood at 3.15 µM.

For the origin of these results see ChEMBL document CHEMBL4765295, “Synthesis, pharmacological profile and 2D-QSAR studies of curcumin-amino acid conjugates as potential drug candidates” (Eur J Med Chem, 2020).
